What was measured:
[1] = target: prothrombin (human) (UniProt P00734); test: cell-based or functional assay
[2] = target: prothrombin (human) (UniProt P00734); test: SPR (Biocore X-100), histone captured on SA chip, prothrombin injected; histone H3
[3] = target: prothrombin (human) (UniProt P00734); test: SPR (Biocore X-100), histone captured on SA chip, prothrombin injected; histone H4
[4] = target: prothrombin (human) (UniProt P00734); test: SPR (Biocore X-100), histone captured on SA chip, prothrombin injected; histone H2B

Substance	thrombin generated in 90 seconds (prothrombinase activity), phospholipids absent [1] [nmol/L]	thrombin generated in 90 seconds (prothrombinase activity), phospholipids present [1] [nmol/L]	Kd [2] [nM]	Kd [3] [nM]	Kd [4] [nM]
histone H3 (from UniProt P68431 2-136)	3.03	3.43	680		
histone H4 (from UniProt P62805 2-103)	4.42	4.71		440	
histone H2B (from UniProt Q16778 2-126)					330

— patent publication US20210024596A1
